Results published in PubChem BioAssay AID624169 (The Scripps Research Institute Molecular Screening Center, 2012).
Only a part is listed here, and it is no random draw. Activity calls are given as the source filed them.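 The calls were made as follows: active = activation above a run cutoff, the mean activation of all tested compounds plus 3 SD (cut at about 14% in these data); inactive = the rest.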

Chains of the proteins cited; added tags and fusions are not shown.
UniProt P35363, whole entry: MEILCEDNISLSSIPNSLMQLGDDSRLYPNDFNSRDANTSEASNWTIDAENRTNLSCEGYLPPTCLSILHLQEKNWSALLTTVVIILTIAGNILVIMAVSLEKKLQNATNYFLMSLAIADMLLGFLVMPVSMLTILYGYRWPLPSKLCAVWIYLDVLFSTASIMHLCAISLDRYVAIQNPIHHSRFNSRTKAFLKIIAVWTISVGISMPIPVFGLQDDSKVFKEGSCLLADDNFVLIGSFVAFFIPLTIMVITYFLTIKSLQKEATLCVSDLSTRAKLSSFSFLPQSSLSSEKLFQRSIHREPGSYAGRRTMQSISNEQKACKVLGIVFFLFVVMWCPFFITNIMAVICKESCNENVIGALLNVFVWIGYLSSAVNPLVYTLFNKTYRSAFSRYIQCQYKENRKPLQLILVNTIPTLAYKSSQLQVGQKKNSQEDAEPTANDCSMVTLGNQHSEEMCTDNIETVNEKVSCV

Biological target: 5-hydroxytryptamine receptor 2A (Mus musculus) (UniProt P35363)
Assay: activation of mouse 5-HT2A receptor – cell-based, luminescence, primary screen (AID 624169);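 also: 0% = plate median of compound wells and 100% = 30 µM serotonin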
Details: CHO-K1 mHTR2A beta-arrestin complementation, at 7.6 µM, active compounds read high, percent of 30 µM serotonin response

SMILES	activation
CP(=O)(NC(=O)Nc1ccccc1)Oc1ccccc1 (stereo unspecified)	inactive: 14.3%
Cc1cc(C)cc(OP(C)(=O)Nc2ccc(SC(F)(F)F)cc2)c1 (stereo unspecified)	inactive: -3.75%
CP(=O)(Nc1ccc(SC(F)(F)F)cc1)Oc1ccc(Cl)cc1 (stereo unspecified)	inactive: -7.34%
Cc1ccc(Nc2c([N+](=O)[O-])cc([N+](=O)[O-])cc2[N+](=O)[O-])cc1	inactive: -10.4%
Cc1cccc(C)c1OP(C)(=O)Nc1ccc(SC(F)(F)F)cc1 (stereo unspecified)	inactive: -1.6%
CP(=O)(Oc1ccccc1)OC(c1ccccc1)C(F)(F)F (stereo unspecified)	inactive: -3.32%
COc1ccccc1OP(C)(=O)Nc1ccccc1 (stereo unspecified)	inactive: 4.08%
CP(=O)(Nc1ccccc1Br)Oc1ccccc1 (stereo unspecified)	inactive: 2.78%
CP(=S)(Nn1cnnc1)Oc1ccccc1 (stereo unspecified)	inactive: -1.8%
COc1ccccc1OP(C)(=O)Nc1cc(Cl)ccc1C (stereo unspecified)	inactive: 2.16%
COc1ccc(OP(C)(=O)Nc2cccc(F)c2)cc1 (stereo unspecified)	inactive: 1.64%
Cc1cc(C)cc(OP(C)(N)=O)c1 (stereo unspecified)	inactive: 0.82%
CCOC(=O)c1ccc(NP(C)(=O)Oc2ccccc2)cc1 (stereo unspecified)	inactive: -0.49%
COc1ccccc1OP(C)(=O)Nc1ccc(C)cc1 (stereo unspecified)	inactive: 0.31%
Cc1ccc(NP(C)(=O)Oc2ccccc2)c(C)c1 (stereo unspecified)	inactive: 1.83%
CC(C)(C)c1ccc(OP(C)(=O)Nc2ccc(SC(F)(F)F)cc2)cc1 (stereo unspecified)	inactive: -5.83%
Cc1cccc(C)c1OP(C)(N)=O (stereo unspecified)	inactive: 2.12%
O=[N+]([O-])c1ccc2c(c1)C=Nc1ccccc1O2	inactive: 4.83%
O=[N+]([O-])c1cc([N+](=O)[O-])c(Nc2cccnc2)c([N+](=O)[O-])c1	inactive: -3.23%
COc1ccccc1-c1ccccn1.O=[N+]([O-])c1cc([N+](=O)[O-])c(O)c([N+](=O)[O-])c1	inactive: -0.11%
CCN(CC)CCCOC(=O)C(O)(c1ccccc1)c1ccccc1	inactive: -2.87%

SMILES	activation
CP(=O)(Nc1cccc(Br)c1)Oc1ccccc1 (stereo unspecified)	inactive: -7.73%
Cc1cc(C)cc(OP(C)(=O)Nc2ccccn2)c1 (stereo unspecified)	inactive: 1.13%
Cc1ccc(C)c(NP(C)(=O)Oc2ccccc2)c1 (stereo unspecified)	inactive: 5.22%
Cc1cc(C)cc(OP(C)(=O)Nc2ccc(C)cc2C)c1 (stereo unspecified)	inactive: -1.3%
CCOC(=O)c1ccc(NP(C)(=O)Oc2cc(C)cc(C)c2)cc1 (stereo unspecified)	inactive: -3.65%
COc1ccccc1OP(C)(=O)Nc1cccc(Br)c1 (stereo unspecified)	inactive: -0.95%
CC1=NCCc2c1[nH]c1ccccc21.O=[N+]([O-])c1cc([N+](=O)[O-])c(O)c([N+](=O)[O-])c1	inactive: 1.68%
O=C(O)c1cccc(Nc2c([N+](=O)[O-])cc([N+](=O)[O-])cc2[N+](=O)[O-])c1	inactive: -7.02%
CP(=O)(Nc1ccc(SC(F)(F)F)cc1)Oc1ccccc1 (stereo unspecified)	inactive: -6.38%
CCCOc1ccc(NP(C)(=O)Oc2ccc(Cl)cc2)cc1 (stereo unspecified)	inactive: -0.23%
COc1ccc(-c2ccccn2)cc1.O=[N+]([O-])c1cc([N+](=O)[O-])c(O)c([N+](=O)[O-])c1	inactive: 3.82%
CN1CCCCC1COC(=O)C1(O)c2ccccc2CCc2ccccc21 (stereo unspecified)	inactive: -5.42%
COc1ccccc1OP(C)(=O)Nc1c(C)cccc1C (stereo unspecified)	inactive: 1.57%
O=[N+]([O-])c1cc([N+](=O)[O-])c(Nc2nnnn2CCO)c([N+](=O)[O-])c1	inactive: -8.92%
CC1=C2N=C(C=C3N=C(C(C)=C4[N-][C@@](C)([C@@H]5N=C1[C@](C)(CCC(=O)NC[C@@H](C)OP(=O)([O-])O[C@H]1[C@@H](O)[C@@H](n6cnc7cc(C)c(C)cc76)O[C@@H]1CO)[C@H]5CC(N)=O)[C@@](C)(CC(N)=O)[C@@H]4CCC(N)=O)[C@@](C)(CC(N)=O)[C@@H]3CCC(N)=O)C(C)(C)[C@@H]2CCC(N)=O.[C-]#N.[Co+3]	inactive: -2.12%
CCOC(=O)C(CC)C1=NC(C)(C)Cc2ccccc21.O=[N+]([O-])c1cc([N+](=O)[O-])c(O)c([N+](=O)[O-])c1 (stereo unspecified)	inactive: 2.45%
Cc1nc2ccc3ccccc3c2s1.O=[N+]([O-])c1cc([N+](=O)[O-])c(O)c([N+](=O)[O-])c1	inactive: -3.36%
O=[N+]([O-])c1cc([N+](=O)[O-])c(-c2cnn(-c3ccccc3)c2)c([N+](=O)[O-])c1	inactive: 2.47%
CN(Cc1cccnc1)C(=O)COc1ccc(Cl)c(Cl)c1.O=[N+]([O-])c1cc([N+](=O)[O-])c(O)c([N+](=O)[O-])c1	inactive: -4.86%
O=[N+]([O-])c1cc([N+](=O)[O-])c(-n2nnc3ccccc32)c([N+](=O)[O-])c1	inactive: 3.15%
